For one compound, IC50 results are on record in patent US11324749B2, “Combination therapy for treatment of hematological diseases” (Incyte Corporation, priority 2018, dated 2022).

As usually defined, the IC50 is the concentration needed to halve the response being measured.

In this assay the target is human JAK1 (a.a. 837-1142) (Homo sapiens, UniProt P23458). The assay is described as follows: In vitro JAK kinase assay (HTRF), JAK1. It counts as biochemical. The conditions noted are these: 1 mM ATP. (In general: Time-resolved FRET reads energy transfer from a long-lived donor to a nearby acceptor.)

Regarding `CN(C)Cc1cc(F)cc(OC2CCN(CC(CC#N)n3cc(-c4ncnc5[nH]ccc45)cn3)CC2)c1` (single isomer, unassigned) [Compound 14, 4-(4-{3-[(dimethylamino)methyl]-5-fluorophenoxy}piperidin-1-yl)-3-[4-(7H-pyrrolo[2,3-d]pyrimidin-4-yl)-1H-pyrazol-1-yl]butanenitrile], the IC50 is below 10 nM.
